Experimental data as given in PMC11742122, “Therapeutic Potential of Crocin and Nobiletin in a Mouse Model of Dry Eye Disease: Modulation of the Inflammatory Response and Protection of the Ocular Surface” (Iranian Journal of Pharmaceutical Research : IJPR, 2024).

Tests used:
corneal tissue = experiment: Hematoxylin and eosin staining of corneal tissue in LGE dry eye mouse model; conditions: LGE mice, 28 days post-operative, H&E; crocin 34 µM, nobiletin 32.75 µM, three times daily
[1] = tested on: corneal epithelial damage; experiment: Corneal fluorescein staining in lacrimal gland excision (LGE) dry eye mouse model; conditions: LGE mice; 3 µL three times daily for 28 days; crocin 34 µM, nobiletin 32.75 µM

SMILES	infiltration of inflammatory cells (corneal tissue)	corneal epithelial damage (fluorescein staining score) versus betamethasone group [1]
CC(/C=C/C=C(\C)C(=O)O[C@@H]1O[C@H](CO[C@@H]2O[C@H](CO)[C@@H](O)[C@H](O)[C@H]2O)[C@@H](O)[C@H](O)[C@H]1O)=C\C=C\C=C(C)\C=C\C=C(/C)C(=O)O[C@@H]1O[C@H](CO[C@@H]2O[C@H](CO)[C@@H](O)[C@H](O)[C@H]2O)[C@@H](O)[C@H](O)[C@H]1O [Crocin]	no infiltration of inflammatory cells was noted	no significant difference in the extent of corneal epithelial damage
COc1ccc(-c2cc(=O)c3c(OC)c(OC)c(OC)c(OC)c3o2)cc1OC [Nobiletin]	infiltration of inflammatory cells	no significant difference in the extent of corneal epithelial damage
